The CC50 is the concentration that lowers cell viability or growth by half.

This data set relates to TZM-bl cells. The experiment in a line: Cytotoxicity, XTT test. The note with it: read-out: Cytotoxicity (TZM-bl cells) CC50. On the technique in general: Formazan colour is commonly taken as a measure of viable cells.

With maraviroc [reference compound], the CC50 is greater than 20 µM.

(Values after patent US11814366B2, “Antiviral compounds and use thereof” (UNIVERSITA DEGLI STUDI DI SIENA, priority 2018, dated 2023).)
